{"source": "paper PMC4129416", "about": "“YLT192, a Novel, Orally Active Bioavailable Inhibitor of VEGFR2 Signaling with Potent Antiangiogenic Activity and Antitumor Efficacy in Preclinical Models” (Scientific Reports, 2014)", "test": "Single-dose toxicity of clinical VEGFR2 inhibitors (FDA data)", "conditions": "rats; MTD 500 mg/kg vs NOAEL >3000 mg/kg"}
{"smiles": "CNC(=O)c1cc(Oc2ccc(NC(=O)Nc3ccc(Cl)c(C(F)(F)F)c3)cc2)ccn1", "note": "[sorafenib]", "values": [{"measurement": "MTD as share of the NOAEL value for YLT192", "result": 17, "unit": "%"}]}
{"smiles": "CCN(CC)CCNC(=O)c1c(C)[nH]c(/C=C2\\C(=O)Nc3ccc(F)cc32)c1C", "note": "[sunitinib]", "values": [{"measurement": "MTD as share of the NOAEL value for YLT192", "result": 17, "unit": "%"}]}
